Our source for the IC50 values is PubChem BioAssay AID489041 (Sanford-Burnham Center for Chemical Genomics, 2010).

Active and inactive are the calls of the source. The rule behind the calls is not given here.

The assay relates to HEK-293T NF-kB luciferase reporter counterscreen, luminescence. The experiment in a line: inhibitors of HEK-293T NF-kB luciferase – HEK-293T cells, luminescence, counter-screen for T-cell antigen receptor NF-kB inhibitors, dose response (AID 489041). Background: Counterscreens check selectivity or assay interference.

In general, IC50 refers to the midpoint of a concentration-inhibition curve. With `Cc1ccnc2c1ccc1cccnc12`, the IC50 is inactive: > 80 µM.

`O=c1c2ccccc2nc(/C=C/c2ccc([N+](=O)[O-])o2)n1-c1ccc(O)cc1`: the concentration for half-maximal inhibition (IC50) is 5.97 µM.

As for `CC[n+]1c(/C=C/N(C)c2ccccc2)oc2ccccc21`, the IC50 was 6.12 µM.
